Experimental data reported in patent US20100227853A1, “INHIBITORS OF CYCLIC AMP PHOSPHODIESTERASES” (Trustees of Boston College, priority 2008, published 2010).

Amino acid sequences for entries named in this document (tags omitted). Residues count along the entry.
UniProt Q08499, 303-809: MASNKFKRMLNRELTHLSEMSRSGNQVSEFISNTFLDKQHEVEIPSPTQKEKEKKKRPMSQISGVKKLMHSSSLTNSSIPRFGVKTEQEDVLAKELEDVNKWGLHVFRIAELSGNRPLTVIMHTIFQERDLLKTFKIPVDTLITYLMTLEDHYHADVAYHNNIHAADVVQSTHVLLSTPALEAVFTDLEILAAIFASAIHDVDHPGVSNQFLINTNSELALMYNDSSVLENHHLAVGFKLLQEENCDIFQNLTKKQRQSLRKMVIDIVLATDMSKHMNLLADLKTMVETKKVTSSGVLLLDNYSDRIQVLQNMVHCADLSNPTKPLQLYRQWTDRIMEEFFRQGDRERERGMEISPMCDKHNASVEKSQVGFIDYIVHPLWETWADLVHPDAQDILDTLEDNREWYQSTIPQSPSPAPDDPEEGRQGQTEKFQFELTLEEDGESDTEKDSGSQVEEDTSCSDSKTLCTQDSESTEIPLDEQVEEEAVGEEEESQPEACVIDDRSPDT
UniProt Q07343, 1-564 isoform 2: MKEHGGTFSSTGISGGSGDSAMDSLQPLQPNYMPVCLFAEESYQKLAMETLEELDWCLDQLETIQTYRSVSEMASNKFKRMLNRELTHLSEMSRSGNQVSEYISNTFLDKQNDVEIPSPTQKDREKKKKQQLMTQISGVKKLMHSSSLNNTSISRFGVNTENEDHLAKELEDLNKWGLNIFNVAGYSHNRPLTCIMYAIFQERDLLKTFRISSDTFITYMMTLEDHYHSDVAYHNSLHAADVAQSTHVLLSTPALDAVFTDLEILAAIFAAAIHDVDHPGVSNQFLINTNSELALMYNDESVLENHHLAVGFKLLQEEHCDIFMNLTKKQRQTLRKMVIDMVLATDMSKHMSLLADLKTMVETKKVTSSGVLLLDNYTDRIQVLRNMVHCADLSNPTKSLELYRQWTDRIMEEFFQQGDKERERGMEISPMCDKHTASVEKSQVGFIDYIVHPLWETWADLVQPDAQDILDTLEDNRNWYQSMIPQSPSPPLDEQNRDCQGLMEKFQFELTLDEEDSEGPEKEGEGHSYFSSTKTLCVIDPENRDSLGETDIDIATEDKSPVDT
UniProt P27815, 1-825 isoform 6: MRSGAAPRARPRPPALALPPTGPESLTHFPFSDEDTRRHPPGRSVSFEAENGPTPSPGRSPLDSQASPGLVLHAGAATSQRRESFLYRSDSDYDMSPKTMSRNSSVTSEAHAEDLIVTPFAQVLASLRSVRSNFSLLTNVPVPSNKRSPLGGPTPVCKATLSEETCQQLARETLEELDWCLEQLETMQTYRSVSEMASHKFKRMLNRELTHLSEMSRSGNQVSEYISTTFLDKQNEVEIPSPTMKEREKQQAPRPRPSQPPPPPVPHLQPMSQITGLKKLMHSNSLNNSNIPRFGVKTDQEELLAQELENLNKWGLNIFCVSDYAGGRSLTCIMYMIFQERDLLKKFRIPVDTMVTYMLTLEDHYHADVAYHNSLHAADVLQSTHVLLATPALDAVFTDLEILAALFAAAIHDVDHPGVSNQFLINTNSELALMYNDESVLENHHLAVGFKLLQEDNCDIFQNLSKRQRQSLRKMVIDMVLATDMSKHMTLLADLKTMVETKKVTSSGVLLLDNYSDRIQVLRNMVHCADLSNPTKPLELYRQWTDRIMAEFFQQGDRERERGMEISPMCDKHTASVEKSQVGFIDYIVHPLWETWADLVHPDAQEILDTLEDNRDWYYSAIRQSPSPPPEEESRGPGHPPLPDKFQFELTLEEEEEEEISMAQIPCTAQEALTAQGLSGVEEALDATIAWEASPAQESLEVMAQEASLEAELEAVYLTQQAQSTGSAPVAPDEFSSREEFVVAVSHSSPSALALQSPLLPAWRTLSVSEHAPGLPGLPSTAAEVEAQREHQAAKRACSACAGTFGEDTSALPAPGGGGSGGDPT
UniProt Q9NP56, 97-420 limits assumed: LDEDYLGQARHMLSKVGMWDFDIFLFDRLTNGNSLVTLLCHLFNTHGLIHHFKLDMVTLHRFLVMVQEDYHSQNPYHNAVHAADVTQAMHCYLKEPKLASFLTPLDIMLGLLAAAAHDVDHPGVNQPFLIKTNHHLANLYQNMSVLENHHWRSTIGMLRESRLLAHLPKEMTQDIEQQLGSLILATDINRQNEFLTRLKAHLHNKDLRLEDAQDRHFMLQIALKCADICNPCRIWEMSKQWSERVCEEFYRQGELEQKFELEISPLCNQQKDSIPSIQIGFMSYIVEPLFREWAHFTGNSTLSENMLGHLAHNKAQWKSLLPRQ
UniProt Q13946, whole entry: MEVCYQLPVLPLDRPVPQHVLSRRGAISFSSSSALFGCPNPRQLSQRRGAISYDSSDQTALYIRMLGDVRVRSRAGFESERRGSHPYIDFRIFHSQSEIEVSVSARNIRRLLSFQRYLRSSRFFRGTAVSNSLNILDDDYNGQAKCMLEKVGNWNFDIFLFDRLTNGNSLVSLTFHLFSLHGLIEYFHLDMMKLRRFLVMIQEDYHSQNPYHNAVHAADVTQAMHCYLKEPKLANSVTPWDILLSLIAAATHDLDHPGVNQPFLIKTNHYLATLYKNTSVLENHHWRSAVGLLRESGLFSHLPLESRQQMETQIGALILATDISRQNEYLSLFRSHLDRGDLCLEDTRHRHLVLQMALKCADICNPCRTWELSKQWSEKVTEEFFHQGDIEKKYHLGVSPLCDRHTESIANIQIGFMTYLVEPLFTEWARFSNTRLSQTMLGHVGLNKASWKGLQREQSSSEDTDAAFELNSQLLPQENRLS

Key:
[1] = molecular target: PDE4D2-FL (Homo sapiens, UniProt Q08499); assay: in vitro enzyme assay, full-length PDE4D2 (residues 1-507); assay type: biochemical; settings: read-out: IC50 (or AC200), PDE4D2-FL
[2] = molecular target: PDE4B2 (Homo sapiens, UniProt Q07343); assay: in vitro enzyme assay, E. coli expressed and purified PDE4B2; assay type: biochemical; settings: read-out: IC50 (or AC200), PDE4B2
[3] = molecular target: PDE4A10 (Homo sapiens, UniProt P27815); assay: in vitro enzyme assay, E. coli expressed and purified PDE4A10; assay type: biochemical; settings: read-out: IC50 (or AC200), PDE4A10
[4] = molecular target: PDE7B (Homo sapiens, UniProt Q9NP56); assay: in vitro enzyme assay, PDE7B catalytic domain from E. coli, hydrolysis of cAMP to AMP; settings: read-out: IC50 (or AC200), PDE7B; AC200 = [Compound] that doubles PDE activity
[5] = molecular target: PDE7A (Homo sapiens, UniProt Q13946); assay: in vitro enzyme assay PDE7A; assay type: biochemical; settings: read-out: IC50 (or AC200), PDE7A; E. coli expressed and purified enzyme

Row | SMILES | IC50 [1] | IC50 [2] | IC50 [3] | IC50 [4] | IC50 [5]
1 | CCOC(=O)c1cc2c(=O)n3ccccc3nc2n(C2CCCCC2)c1=NC(C)=O (single isomer, unassigned) | < 2000 nM | 50 nM | 90 nM | – | –
2 | Cc1sc2ncnc(NC3CCCCC3)c2c1C [BC28] | > 2000 nM | > 10000 nM | > 10000 nM | 1500 nM | 650 nM
